In ChEMBL document CHEMBL1955766, “Structure guided development of novel thymidine mimetics targeting Pseudomonas aeruginosa thymidylate kinase: from hit to lead generation” (J Med Chem, 2012):

Target: T1, Thymidylate kinase (Homo sapiens, UniProt P23919)
T1 sequence (P23919 whole entry): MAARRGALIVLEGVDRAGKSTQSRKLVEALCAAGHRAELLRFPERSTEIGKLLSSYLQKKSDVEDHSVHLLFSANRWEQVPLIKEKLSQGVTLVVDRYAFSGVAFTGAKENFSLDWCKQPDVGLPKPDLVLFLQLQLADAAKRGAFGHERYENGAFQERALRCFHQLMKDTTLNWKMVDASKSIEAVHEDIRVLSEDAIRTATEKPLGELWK
Experiment: Inhibition of human thymidylate kinase using dTMP as substrate after 30 mins by fluorescence analysis

O=C(O)c1cc(SSc2ccc([N+](=O)[O-])c(C(=O)O)c2)ccc1[N+](=O)[O-]
IC50: 1.53 µM
